Test system: Aβ42/40 ratio
Assay: Aβ42/40 ratio in FAD1 iPS cell-derived nerve cells (primary/secondary screening, dose dependency)
Format: cell-based, human
Details: secondary screening

With O=C(O)COCCN1CCN([C@H](c2ccccc2)c2ccc(Cl)cc2)CC1 [compound 30, LEVOCETIRIZINE] the “Ratio Aβ42/40” value was 0.85.

Reference: patent publication US11026942B2, “Agent for preventing and/or treating Alzheimer's disease” (KYOTO UNIVERSITY, priority 2015, dated 2021)
